Values quoted from earlier work as cited in PMC7849011, “Defining the Antimalarial Activity of Cipargamin in Healthy Volunteers Experimentally Infected with Blood-Stage Plasmodium falciparum” (Antimicrobial Agents and Chemotherapy, 2021).

Tested on: P. falciparum
Conditions: 800 mg single dose, IBSM; cited from earlier work

Substance: ferroquine
- parasite clearance half-life: 6.5 h
